Assays:
[1] = system: NCI-N87 gastric cancer cell line; experiment: anticancer efficacy test in NCI-N87 xenograft model; assay type: in vivo, BALB/c nude mouse; conditions: BALB/c nude mice, 5 mg/kg intravenous, once/2 days, three-time administration, 5-week observation
Protocol: A xenograft model was prepared by subcutaneously transplanting an NCI-N87 gastric cancer cell line overexpressing a target antigen, and an anticancer efficacy test was performed on the administered materials, by classifying the xenograft model into four groups. Since the BALB/c nude mouse used in the present experiment is deficient in T cells, cancer cells are easily transplanted into the mouse, so that the mouse was used as model suitable for an anticancer efficacy test using rodents.
A RPM11640 medium (Gibco, 22400-089) containing heat-inactivated 10% fetal bovine serum (FBS, Gibco, 10082-742) was put into a cell culture flask, and 1 vial of a human tumor cell line (NCI-N87 cell line) was added thereto and cultured in a 5% CO2 incubator at 37° C. […]
During the administration and observation period, the types of general symptoms including death, the date of onset and the degree of symptoms were observed once a day and recorded for each individual. […]
Body weight is measured on the day of group separation or the start of administration of the test material, and then twice/week after that.
The size of the tumor is measured 2 times/week for 5 weeks from the start date of administration of the test material. The major axis and minor axis of the tumor were measured using calipers, and the tumor size was calculated using the following equation. […]

[2] = system: BT474; experiment: in vitro cytotoxicity test, BT474; assay type: cell-based; conditions: Her2-overexpressing cells BT474
Protocol: (§1) The efficacy of the antibody-payload conjugate (ADC, trastuzumab-DM1 conjugate) was evaluated based on the target marker level of cancer cells, and cytotoxicity experiments were performed using NCI-N87 and BT474 for the positive expression cell lines of the target antigen Her2 and MDA-MB-468 for the negative cell lines.

[3] = system: NCI-N87; experiment: in vitro cytotoxicity test, NCI-N87; assay type: cell-based, human
Protocol: as §1

| Substance | suppressing tumor growth [1] | IC50 [2] [µg/mL] | IC50 ([3]; Her2-overexpressing cells NCI-N87) [µg/mL] | anticancer effect compared to the commercialized Herceptin ADC, Kadcyla ([3]; NCI-N87 and BT474 cytotoxicity, comparison with Kadcyla) |
| --- | --- | --- | --- | --- |
| trastuzumab-DM1 conjugate: trastuzumab with two norbornenes introduced by Compound II-FcBP(6Lys)-norbornene, conjugated with Tetrazine-PEG8-DM1; Drug Antibody Ratio=2 | excellent ability of suppressing tumor growth compared to Herceptin | 0.0296 | 0.0821 | equivalent level |
| Herceptin: Herceptin (Trastuzumab), antibody [reference compound] | no tendency of suppressing tumor growth | – | – | – |

From US12296019B2, “Compound for preparation of antibody-payload conjugate and use thereof” (AbTis Co., Ltd., priority 2019, dated 2025)
